# According to PMC5927803 (Pharmacology Research & Perspectives, 2018):
# Chains of the proteins cited; added tags and fusions are not shown. Lines headed by an entry give the natural chain unless they say otherwise; changes in a name come on top.
# UniProt P08173, whole entry: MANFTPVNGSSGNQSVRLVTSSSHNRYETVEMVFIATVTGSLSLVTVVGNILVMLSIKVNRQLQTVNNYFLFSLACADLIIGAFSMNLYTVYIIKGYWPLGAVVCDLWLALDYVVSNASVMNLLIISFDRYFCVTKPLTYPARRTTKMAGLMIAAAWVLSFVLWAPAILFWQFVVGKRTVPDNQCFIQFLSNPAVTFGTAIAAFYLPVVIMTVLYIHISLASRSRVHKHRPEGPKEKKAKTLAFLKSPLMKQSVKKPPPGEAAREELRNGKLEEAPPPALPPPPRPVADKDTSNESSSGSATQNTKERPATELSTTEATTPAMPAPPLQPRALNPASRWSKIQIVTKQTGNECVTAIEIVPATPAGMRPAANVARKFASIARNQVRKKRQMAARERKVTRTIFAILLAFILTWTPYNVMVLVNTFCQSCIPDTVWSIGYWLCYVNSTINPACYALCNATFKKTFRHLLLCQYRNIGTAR
# UniProt P11229: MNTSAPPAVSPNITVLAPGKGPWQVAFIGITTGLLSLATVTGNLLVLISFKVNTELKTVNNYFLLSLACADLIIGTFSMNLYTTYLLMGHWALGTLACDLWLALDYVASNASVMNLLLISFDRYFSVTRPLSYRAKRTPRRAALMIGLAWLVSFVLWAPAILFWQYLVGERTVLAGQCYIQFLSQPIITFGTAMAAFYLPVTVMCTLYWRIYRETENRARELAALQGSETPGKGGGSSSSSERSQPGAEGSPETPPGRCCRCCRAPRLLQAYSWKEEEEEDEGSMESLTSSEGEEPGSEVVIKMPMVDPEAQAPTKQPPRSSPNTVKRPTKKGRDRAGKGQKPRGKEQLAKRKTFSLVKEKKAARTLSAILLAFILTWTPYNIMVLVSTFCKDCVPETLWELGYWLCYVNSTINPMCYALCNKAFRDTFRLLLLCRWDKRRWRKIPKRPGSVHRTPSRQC
# UniProt P20309, whole entry: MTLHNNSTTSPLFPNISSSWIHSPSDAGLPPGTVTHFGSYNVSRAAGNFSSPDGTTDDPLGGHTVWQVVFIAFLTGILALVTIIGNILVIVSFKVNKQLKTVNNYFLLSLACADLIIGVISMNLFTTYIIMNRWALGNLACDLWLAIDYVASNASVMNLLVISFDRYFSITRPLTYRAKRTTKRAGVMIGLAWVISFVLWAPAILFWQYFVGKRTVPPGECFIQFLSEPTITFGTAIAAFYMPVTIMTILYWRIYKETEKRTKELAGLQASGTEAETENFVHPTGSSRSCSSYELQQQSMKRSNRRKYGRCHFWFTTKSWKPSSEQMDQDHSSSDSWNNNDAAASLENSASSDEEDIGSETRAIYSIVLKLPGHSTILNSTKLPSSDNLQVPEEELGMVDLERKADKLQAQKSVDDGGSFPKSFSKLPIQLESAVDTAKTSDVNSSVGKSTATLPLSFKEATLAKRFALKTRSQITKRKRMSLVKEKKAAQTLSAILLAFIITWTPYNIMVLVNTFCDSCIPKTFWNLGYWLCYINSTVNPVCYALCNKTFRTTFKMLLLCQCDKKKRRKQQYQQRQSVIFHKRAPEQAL
# UniProt P08172, whole entry: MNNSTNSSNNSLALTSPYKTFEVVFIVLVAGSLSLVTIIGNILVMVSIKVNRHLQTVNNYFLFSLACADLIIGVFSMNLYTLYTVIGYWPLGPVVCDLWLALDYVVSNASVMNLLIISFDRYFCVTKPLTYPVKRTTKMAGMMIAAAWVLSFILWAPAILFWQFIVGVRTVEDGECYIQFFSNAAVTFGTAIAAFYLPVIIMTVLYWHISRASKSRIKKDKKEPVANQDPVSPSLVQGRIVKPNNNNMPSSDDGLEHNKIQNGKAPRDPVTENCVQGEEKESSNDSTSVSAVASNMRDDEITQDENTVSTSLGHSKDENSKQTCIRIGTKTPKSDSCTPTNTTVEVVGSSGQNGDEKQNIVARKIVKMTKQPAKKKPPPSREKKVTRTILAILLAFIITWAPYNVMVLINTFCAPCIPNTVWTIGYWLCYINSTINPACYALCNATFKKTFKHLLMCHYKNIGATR
# Key:
# hM4 mAChR = hM4 mAChR (Homo sapiens, UniProt P08173); assay: Competition radioligand binding, [^3H]NMS
# hM1 mAChR [1] = molecular target: T1, hM1 mAChR (Homo sapiens, UniProt P11229); assay: Competition radioligand binding, [^3H]NMS
# hM3 mAChR [2] = molecular target: T2, hM3 mAChR (Homo sapiens, UniProt P20309); assay: Inhibition of agonist-stimulated calcium mobilization; assay type: cell-based
# hM3 mAChR [3] = molecular target: T2, hM3 mAChR; assay: Competition radioligand binding, [^3H]NMS; conditions: hM3 pKI, [^3H]NMS competition, CHO-K1 membranes, 37°C; mean ± SD
# hM2 mAChR [4] = molecular target: T3, hM2 mAChR (Homo sapiens, UniProt P08172); assay: biochemical; conditions: hM2 pKI, [^3H]NMS competition, CHO-K1 membranes, 37°C; mean ± SD
# hM1 mAChR [5] = molecular target: T1, hM1 mAChR; assay: Inhibition of agonist-stimulated calcium mobilization; assay type: cell-based
# hM2 mAChR [6] = molecular target: T3, hM2 mAChR; assay: Inhibition of agonist-stimulated [^35S]GTPγS binding, CHO-K1 membranes; assay type: biochemical
Ki (hM4 mAChR) [nM],Structure (SMILES),Ki (hM1 mAChR [1]) [nM],Ki (hM3 mAChR [2]) [nM],Ki (hM3 mAChR [3]) [nM],Ki (hM2 mAChR [4]) [nM],Ki (hM1 mAChR [5]) [nM],Ki (hM2 mAChR [6]) [nM]
0.372,C[N+]1(C)CCC(OC(=O)C(O)(c2ccccc2)C2CCCC2)C1 (centres unmarked) [Glycopyrrolate],0.275,,,,,
,"CC(C)[N+]1(C)[C@@H]2CC[C@H]1C[C@@H](OC(=O)C(CO)c1ccccc1)C2 (some centres unmarked) [Ipratropium, reference compound]",1.78,0.0427,1.07,0.933,0.151,0.174
